Measurements published in US20230219951A1, “PYRIDINE-PYRIMIDINE DERIVATIVE, PREPARATION METHOD THEREFOR AND PHARMACEUTICAL USE THEREOF” (Jiangsu Hengrui Pharmaceuticals Co., Ltd., priority 2020, published 2023).

The chains behind the UniProt entries cited, without tags or fusion partners. Where a name states a change or a piece, a line headed by the entry shows the natural chain unless it says otherwise. Residues count along the entry.
UniProt Q07889, 564-1049 limits assumed, stated change not applied: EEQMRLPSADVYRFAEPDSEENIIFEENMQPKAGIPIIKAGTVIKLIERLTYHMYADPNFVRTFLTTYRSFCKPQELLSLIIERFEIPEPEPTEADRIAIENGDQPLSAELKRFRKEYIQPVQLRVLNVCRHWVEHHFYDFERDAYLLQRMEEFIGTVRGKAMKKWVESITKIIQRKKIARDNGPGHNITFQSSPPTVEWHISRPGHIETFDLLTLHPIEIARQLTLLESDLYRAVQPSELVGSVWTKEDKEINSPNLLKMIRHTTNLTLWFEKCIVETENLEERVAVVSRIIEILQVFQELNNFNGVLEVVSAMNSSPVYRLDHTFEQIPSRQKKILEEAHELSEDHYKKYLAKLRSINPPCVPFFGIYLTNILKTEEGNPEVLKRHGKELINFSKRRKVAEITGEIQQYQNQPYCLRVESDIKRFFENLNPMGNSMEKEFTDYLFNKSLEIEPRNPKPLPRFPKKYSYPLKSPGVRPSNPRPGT

Key:
H358 cells = test: Inhibition of proliferation of H358 cells (CellTiter-Glo 3D); conditions: read-out: IC50 (nM), proliferation of H358 cells, low adsorption plate, 120 h
Method: This example is intended to evaluate the inhibition effect of the compounds of the present disclosure on the KRAS target (containing the G12C mutation) by testing the inhibition effect of the compounds of the present disclosure on the proliferation of H358 cells.
H358 cells (ATCC, CRL-5807) were cultured in a complete medium, namely RPMI1640 medium (Hyclone, SH30809.01) containing 10% fetal bovine serum (Corning, 35-076-CV). On the first day of the experiment, the H358 cells were seeded into a 96-well low adsorption plate (Coming, CLS7007-24EA) at a density of 1500 cells/well with a complete medium to form 90 μL of cell suspension per well. The plate was centrifuged at 2000 rpm for 5 min at room temperature and then incubated overnight in a cell incubator at 37° C. with 5% CO2. The next day, 10 μL of test compound diluted in a gradient prepared with the complete medium was added to each well. The final concentrations of the compound were 9 concentration points obtained by 5-fold gradient dilution from 10 μM. A blank control containing 0.1% DMSO was set. The plate was incubated in a cell incubator at 37° C. with 5% CO2 for 120 h. On the seventh day, the 96-well cell culture plate was taken out and 50 μL of CellTiter-Glo® 3D reagent (Promega, G9682) was added into each well. The plate was shaken at room temperature for 25 min, pipetted and mixed well, from which 50 μL of the mixture was transferred into a white impermeable 96-well plate (PE, 6005290). The luminescence signal values were read using a multi-mode microplate reader (PerkinElmer, VICTOR 3).
IC50 values for the inhibitory activity of the compounds were calculated using Graphpad Prism software.

[1] = molecular target: interaction between the KRAS protein subtype G12V and the SOS1 protein (Homo sapiens, UniProt Q07889); test: Inhibition of the interaction between KRAS G12V and SOS1 protein (AlphaLISA/AlphaScreen); conditions: read-out: SOS1-G12V IC50/nM; KRAS G12V + GST-TEV-SOS1(564-1049) + GDP
Method: (§1) Test Example 1: Inhibitory Ability of Compounds of the Present Disclosure to the Interaction Between the KRAS Protein Subtype G12D or G12V and the SOS1 Protein. The inhibitory ability of the compounds of the present disclosure to the interaction between the KRAS protein subtype G12D or G12V and the SOS1 protein was determined by the following method. The experimental method was briefly described as follows:
(§2) 1. The experimental buffer was prepared prior to the start of the experiment: 1×PBS+0.1% BSA+0.05% tween 20.
(§3) 2. KRAS G12D and KRAS-G12V proteins were labeled with biotin using the biotin labeling kit.
(§4) 1. Firstly, the biotin-labeled KRAS G12D or KRAS G12V protein was mixed and incubated with the SOS1 protein and GDP for later use.
(§5) 2. AlphaLISA glutathione acceptor beads and AlphaScreen streptavidin donor beads were mixed at a ratio of 1:1 to make the concentration of 40 μg/mL for later use.
(§6) 3. The compound was formulated with the experimental buffer to obtain 10 concentration points by 5-fold gradient dilution from an initial concentration of 40 μM.
(§7) 4. In the 384-well microplate, 10 μL of a mixture of KRAS G12D or KRAS G12V protein and SOS1 and GDP and 5 μL of the diluted compound were added to each well and incubated at room temperature for 30 min away from the light.
(§8) 5. Then, 5 μL of a mixture of AlphaLISA glutathione acceptor beads and AlphaScreen streptavidin donor beads was added to each well and incubated at room temperature for 60 min away from the light.
(§9) 6. The fluorescence values were read on a multi-mode microplate reader.
(§10) 7. IC50 values of the compounds were calculated using Graphpad Prism.

[2] = molecular target: interaction between the KRAS protein subtype G12D and the SOS1 protein (Homo sapiens, UniProt Q07889); test: Inhibition of the interaction between KRAS G12D and SOS1 protein (AlphaLISA/AlphaScreen); conditions: read-out: SOS1-G12D IC50/nM; KRAS G12D + GST-TEV-SOS1(564-1049) + GDP
Method: as §1, §2, §3, §4, §5, §6, §7, §8, §9, §10

For `Cc1nc(N[C@H](C)c2cccc(C(F)(F)CO)c2F)c2cc(C3CCC(O)CC3)c(=O)[nH]c2n1` (single isomer, unassigned) [Longer retention time in 11-p1 and 11-p2], the IC50 (H358 cells) was 72 nM, the IC50 [1] was 23 nM and the IC50 [2] was 21 nM.
Compound `Cc1nc(N[C@H](C)c2cccc(C(F)F)c2F)c2cc(C3(O)CCC(C(=O)N(C)C)CC3)c(=O)[nH]c2n1` (single isomer, unassigned) [Longer retention time in 14-p1 and 14-p2] has an IC50 (H358 cells) of 597 nM, an IC50 [1] of 411 nM and an IC50 [2] of 107 nM.
Work on `Cc1nc(N[C@H](C)c2cccc(C(F)(F)CO)c2F)c2cc(C3CCC(O)CC3)c(=O)[nH]c2n1` (single isomer, unassigned) [Shorter retention time in 11-p1 and 11-p2] yielded an IC50 (H358 cells) of 104 nM, an IC50 [1] of 38 nM and an IC50 [2] of 10 nM.
Work on `Cc1nc(N[C@H](C)c2cccc(C(F)F)c2F)c2cc(C3(O)CCC(C(=O)N(C)C)CC3)c(=O)[nH]c2n1` (single isomer, unassigned) [Shorter retention time in 14-p1 and 14-p2] yielded an IC50 (H358 cells) of 34 nM, an IC50 [1] of 47 nM and an IC50 [2] of 14 nM.
